Data published in patent US10442819B2, “Tricyclic compounds as inhibitors of mutant IDH enzymes” (Merck Sharp & Dohme Corp., priority 2014, dated 2019).

Protein sequences, listed by entry. Tags and fused reporters are not part of them.
UniProt O75874, whole entry R132H: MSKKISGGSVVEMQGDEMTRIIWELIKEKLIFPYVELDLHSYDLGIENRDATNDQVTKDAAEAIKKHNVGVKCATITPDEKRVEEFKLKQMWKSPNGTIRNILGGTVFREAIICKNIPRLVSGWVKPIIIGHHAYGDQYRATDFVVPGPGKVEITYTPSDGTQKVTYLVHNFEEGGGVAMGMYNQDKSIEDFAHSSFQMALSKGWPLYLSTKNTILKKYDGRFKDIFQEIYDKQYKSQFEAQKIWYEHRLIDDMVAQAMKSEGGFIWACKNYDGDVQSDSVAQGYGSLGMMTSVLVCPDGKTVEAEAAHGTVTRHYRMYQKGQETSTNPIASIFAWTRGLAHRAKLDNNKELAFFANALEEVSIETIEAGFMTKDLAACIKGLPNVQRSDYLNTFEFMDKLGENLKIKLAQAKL

Target: R132H mutant IDH1 enzyme (Homo sapiens (Human), UniProt O75874, R132H)
Test: R132H IDH1 Enzymatic Assay
Format: biochemical
Conditions: R132H mutant IDH1 enzyme 1.5 nM final; luminescence readout; read-out: IC50

Row | SMILES | IC50 [nM]
1 | C[C@@H](N[C@H]1CC[C@@H](C(=O)N2Cc3cccnc3Nc3ccc(N4CCOCC4)cc32)CC1)C(F)(F)F [Example 442, cis-4-[(8-morpholin-4-yl-5,11-dihydro-6H-pyrido[2,3-b][1,5]benzodiazepin-6-yl)carbonyl]-N-[(1R)-2,2,2-trifluoro-1-methylethyl]cyclohexanamine] | 691
2 | O=C([C@H]1CC[C@H](NC2(C(F)(F)F)CC2)CC1)N1Cc2cccnc2Nc2ccc(N3CCOCC3)cc21 [Example 443, trans-4-[(8-morpholin-4-yl-5,11-dihydro-6H-pyrido[2,3-b][1,5]benzodiazepin-6-yl)carbonyl]-N-[1-(trifluoromethyl)cyclopropyl]-cyclohexanamine] | 56
3 | O=C([C@H]1CC[C@@H](NC2(C(F)(F)F)CC2)CC1)N1Cc2cccnc2Nc2ccc(N3CCOCC3)cc21 [Example 444, cis-4-[(8-morpholin-4-yl-5,11-dihydro-6H-pyrido[2,3-b][1,5]benzodiazepin-6-yl)carbonyl]-N-[1-(trifluoromethyl)cyclopropyl]-cyclohexanamine] | 155
4 | O=C([C@H]1CC[C@H](NC(C2CC2)C(F)(F)F)CC1)N1Cc2cccnc2Nc2ccc(N3CCOCC3)cc21 (stereo partly drawn) [Example 445, trans-N-[1-cyclopropyl-2,2,2-trifluoroethyl]-4-[(8-morpholin-4-yl-5,11-dihydro-6H-pyrido[2,3-b][1,5]benzodiazepin-6-yl)carbonyl]cyclohexanamine] | 95
5 | O=C([C@H]1CC[C@@H](NC(C2CC2)C(F)(F)F)CC1)N1Cc2cccnc2Nc2ccc(N3CCOCC3)cc21 (stereo partly drawn) [Example 446, cis-N-[1-cyclopropyl-2,2,2-trifluormoethyl]-4-[(8-morpholin-4-yl-5,11-dihydro-6H-pyrido[2,3-b][1,5]benzodiazepin-6-yl)carbonyl]cyclohexanamine] | 203
6 | CN(C(C1CC1)C(F)(F)F)[C@H]1CC[C@H](C(=O)N2Cc3cccnc3Nc3ccc(N4CCOCC4)cc32)CC1 (stereo partly drawn) [Example 447, trans-N-[1-cyclopropyl-2,2,2-trifluoroethyl]-N-methyl-4-[(8-morpholin-4-yl-5,11-dihydro-6H-pyrido[2,3-b][1,5]benzodiazepin-6-yl)carbonyl]cyclohexanamine] | 45
7 | CN(C(C1CC1)C(F)(F)F)[C@H]1CC[C@@H](C(=O)N2Cc3cccnc3Nc3ccc(N4CCOCC4)cc32)CC1 (stereo partly drawn) [Example 448, cis-N-[1-cyclopropyl-2,2,2-trifluoroethyl]-N-methyl-4-[(8-morpholin-4-yl-5,11-dihydro-6H-pyrido[2,3-b][1,5]benzodiazepin-6-yl)carbonyl]cyclohexanamine] | 123
8 | CC[C@H](N[C@H]1CC[C@H](C(=O)N2Cc3cccnc3Nc3ccc(N4CCOCC4)cc32)CC1)C(F)(F)F [Example 449, trans-4-[(8-morpholin-4-yl-5,11-dihydro-6H-pyrido[2,3-b][1,5]benzodiazepin-6-yl)carbonyl]-N-[(1S)-1-(trifluoromethyl)propyl]-cyclohexanamine] | 83
9 | CC[C@H](N[C@H]1CC[C@@H](C(=O)N2Cc3cccnc3Nc3ccc(N4CCOCC4)cc32)CC1)C(F)(F)F [Example 450, cis-4-[(8-morpholin-4-yl-5,11-dihydro-6H-pyrido[2,3-b][1,5]benzodiazepin-6-yl)carbonyl]-N-[(1S)-1-(trifluoromethyl)propyl]-cyclohexanamine] | 221
10 | CC[C@@H](N[C@H]1CC[C@H](C(=O)N2Cc3cccnc3Nc3ccc(N4CCOCC4)cc32)CC1)C(F)(F)F [Example 451, trans-4-[(8-morpholin-4-yl-5,11-dihydro-6H-pyrido[2,3-b][1,5]benzodiazepin-6-yl)carbonyl]-N-[(1R)-1-(trifluoromethyl)propyl]-cyclohexanamine] | 128
11 | CC[C@@H](N[C@H]1CC[C@@H](C(=O)N2Cc3cccnc3Nc3ccc(N4CCOCC4)cc32)CC1)C(F)(F)F [Example 452, cis-4-[(8-morpholin-4-yl-5,11-dihydro-6H-pyrido[2,3-b][1,5]benzodiazepin-6-yl)carbonyl]-N-[(1R)-1-(trifluoromethyl)propyl]-cyclohexanamine] | 139
